Sequences of proteins named here, by UniProt entry; tags and fusion partners are left off. Residues count along the entry.
UniProt P10721, 26-976: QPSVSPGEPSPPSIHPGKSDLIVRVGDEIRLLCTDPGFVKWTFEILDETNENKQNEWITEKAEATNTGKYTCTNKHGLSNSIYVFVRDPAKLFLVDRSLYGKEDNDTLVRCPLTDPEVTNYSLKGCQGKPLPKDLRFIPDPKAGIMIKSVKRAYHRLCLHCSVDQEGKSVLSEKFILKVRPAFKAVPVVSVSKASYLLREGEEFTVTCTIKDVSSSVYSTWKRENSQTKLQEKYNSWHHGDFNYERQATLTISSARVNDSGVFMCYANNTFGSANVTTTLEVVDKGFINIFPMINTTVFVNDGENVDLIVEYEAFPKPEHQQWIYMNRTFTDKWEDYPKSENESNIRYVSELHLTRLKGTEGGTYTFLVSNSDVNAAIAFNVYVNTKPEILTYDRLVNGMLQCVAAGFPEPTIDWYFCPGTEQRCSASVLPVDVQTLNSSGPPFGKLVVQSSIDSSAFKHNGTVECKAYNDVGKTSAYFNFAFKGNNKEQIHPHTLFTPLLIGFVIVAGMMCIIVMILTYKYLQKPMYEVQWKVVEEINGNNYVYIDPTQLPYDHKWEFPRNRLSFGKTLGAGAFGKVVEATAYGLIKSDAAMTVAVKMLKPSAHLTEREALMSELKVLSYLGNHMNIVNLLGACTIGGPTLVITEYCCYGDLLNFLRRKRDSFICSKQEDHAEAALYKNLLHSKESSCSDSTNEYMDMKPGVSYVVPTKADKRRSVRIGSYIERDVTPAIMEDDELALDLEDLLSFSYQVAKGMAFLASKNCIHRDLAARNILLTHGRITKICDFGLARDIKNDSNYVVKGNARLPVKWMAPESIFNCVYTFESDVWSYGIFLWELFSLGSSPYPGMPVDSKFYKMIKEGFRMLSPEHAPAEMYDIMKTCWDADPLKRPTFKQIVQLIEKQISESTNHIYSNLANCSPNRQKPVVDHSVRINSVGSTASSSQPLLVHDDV

In PMC10227015, “From a drug repositioning to a structure-based drug design approach to tackle acute lymphoblastic leukemia” (Nature Communications, 2023):

Target: T1, human c-KIT (Homo sapiens, UniProt P10721)
T1 construct: expressed in transfected cells; host or cells: Ba/F3 (murine IL3-dependent pro-B cell line)
Test: c-KIT cellular assay: Ba/F3 proliferation with SCF, without IL3
Format: cell-based
Details: no IL3, 48 h
Experimental: The generation of Ba/F3 cells expressing wild-type human c-KIT has been previously described by us[55],[56]. For the assay of Ba/F3 cell proliferation, plates were seeded with a total of 10,000 cells per well. Cells were supplemented, or not, with either 0.1% IL3 or 250 ng/ml murine SCF. IL3 was obtained from conditioned medium from X63-omIL-3 cells (obtained from Fritz Melchers laboratory (Berlin, Germany)) and murine SCF, which activates c-KIT, was purified from the conditioned medium of SCF-producing CHO cells. Cells were supplemented with compounds at varying concentrations (final 0.1% DMSO). […] The amount of reduced dye formed by metabolically active cells was quantified by its fluorescence measured at 560 nm (excitation) and 590 nm (emission) in a microplate reader (FLUOstar Omega, BMG Labtech). A blank well without cells was used as a background control. Each experiment was performed at least three times (with technical triplicates) and data are presented as the mean ± SD.

Cell proliferation of the IL-3 dependent Ba/F3 cell line Mean (% prolif) (3.7 nM): 92.1% | Cell proliferation of the IL-3 dependent Ba/F3 cell line Mean (% prolif) (11 nM): 85.8% | Cell proliferation of the IL-3 dependent Ba/F3 cell line Mean (% prolif) (33 nM): 67.2% | Cell proliferation of the IL-3 dependent Ba/F3 cell line Mean (% prolif) (99 nM): 42.4% | Cell proliferation of the IL-3 dependent Ba/F3 cell line Mean (% prolif) (296 nM): 11.3% | Cell proliferation of the IL-3 dependent Ba/F3 cell line Mean (% prolif) (889 nM): 2.8% | Cell proliferation of the IL-3 dependent Ba/F3 cell line Mean (% prolif) (2667 nM): 1.3% | Cell proliferation of the IL-3 dependent Ba/F3 cell line Mean (% prolif) (8000 nM): 0.8% | Cell proliferation of the IL-3 dependent Ba/F3 cell line Mean (% prolif) (24000 nM): 0.667%
SMILES: Cc1ccc(NC(=O)c2ccc(CN3CCN(C)CC3)cc2)cc1Nc1nc(-c2cccnc2)cs1 [Masitinib, masitinib, reference compound]
